Where two headings read alike, the source gives them in different places.
What was measured:
[1] = Rat Plasma; substrate 2.0 μM; no cofactors; 37° C.
[2] = Human Plasma; substrate 2.0 μM; no cofactors; 37° C.
[3] = Rat Liver S9 (0.5 mg/mL); substrate 2.0 μM; NADPH; 37° C.
[4] = Human Liver S9 (0.5 mg/mL); substrate 2.0 μM; NADPH; 37° C.
[5] = Human Intestine S9 (0.5 mg/mL); substrate 2.0 μM; NADPH; 37° C.

Percent of (101) Released in 60 min [1]: 75%
Percent of (101) Released in 60 min [2]: 90%
Percent of (101) Released in 60 min [3]: 35%
Percent of (101) Released in 60 min [4]: 70%
Percent of (101) Released in 60 min [5]: 95%
Substance: Cholyl-DOPA-(4-pivaloyloxymethyl) [(102)]
